# Tested on: NUGC-4 xenografts
# Test: In vivo tumor targeting of Dyelight 680-labeled antibodies (fluorescence imaging)
# Design: species or system nude mice
# Conditions: 24 hours after i.v. injection; 80 μg Dyelight 680-labeled antibody
substance,measurement,value
Trastuzumab: antibody whose target is HER2/neu; Dyelight 680-labeled positive control [reference compound],"localisation of labeled antibody, live imaging",detected exclusively in the xenografts

# — patent US12059464B2, “Combination therapy involving antibodies against Claudin 18.2 for treatment of cancer” (Astellas Pharma Inc., priority 2012, dated 2024)
